For test [1], the target named is T1, human H3 receptor (Homo sapiens, UniProt Q9Y5N1). The test can be described thus: In vitro H3 binding assay (3H-N-α-methyl-histamine competition binding). As to conditions: read-out: hH3 binding IC50; membranes of CHO-K1 cells expressing human H3 receptor; 2 nM 3H-NαMH. The protocol: The ability of compounds to bind to the H3 receptor was determined by measuring the reduction in tritiated N-α-methyl-histamine (^3H—NαMH) binding in a competition binding assay. Changes in the levels of bound radio-label were monitored by scintillation counting with a Trilux Microbeta (Perkin Elmer).
Membranes were prepared from CHO-K1 cells stably expressing human H3 receptor; routinely grown as monolayers in Ham's F12 medium (Invitrogen) supplemented with 10% Foetal Clone 111 (Hyclone), 500 μg/ml G418 (Invitrogen), 5 μg/ml blasticidine S (Invivogen) and […] Gentamicin (Sigma) in 5% CO2 at 37° C. […] Membranes were suspended in homogenisation buffer, protein concentration was determined (BCA Protein Assay kit (Pierce)), diluted to 2.2 mg/ml, dispensed into 1 ml aliquots and stored at −80° C.
Membranes were thawed on ice, sonicated with 4 cycles of 20 pulses (50% amplitude, 0.5 pulse) (UP200S Hielscher) on ice, diluted in assay buffer (50 mM Tris-HCl (pH7.4), 5 mM MgCl2) to 62.5 μg/ml. […] Total binding was determined in the presence of 1% DMSO and non-specific binding was determined by the inclusion of 1 μM R-α-methyl-histamine (RαMH). […] Filtermats were dried at 42° C. for two hours, scintillant added and the level of bound radioactivity determined. […]

Chains of the proteins cited; added tags and fusions are not shown.
UniProt Q9Y5N1, whole entry: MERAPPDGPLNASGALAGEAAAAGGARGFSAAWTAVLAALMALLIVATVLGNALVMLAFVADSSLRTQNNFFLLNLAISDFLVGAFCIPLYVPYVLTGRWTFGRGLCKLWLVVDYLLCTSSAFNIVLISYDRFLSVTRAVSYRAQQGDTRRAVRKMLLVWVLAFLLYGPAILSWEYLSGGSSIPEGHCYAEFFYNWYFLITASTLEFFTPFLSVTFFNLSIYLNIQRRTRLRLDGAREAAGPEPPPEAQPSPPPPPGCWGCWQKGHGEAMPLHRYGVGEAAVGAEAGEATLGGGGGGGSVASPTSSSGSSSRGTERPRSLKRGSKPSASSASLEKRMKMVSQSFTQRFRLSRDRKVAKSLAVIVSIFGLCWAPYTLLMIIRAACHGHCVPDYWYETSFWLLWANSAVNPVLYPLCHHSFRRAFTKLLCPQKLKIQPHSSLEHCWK

Test [2] concerns the target T1, human H3 receptor. Briefly: In vitro H3 functional assay (cAMP response element driven luciferase reporter). The following applies: read-out: hH3 functional IC50; CHO(dhfr+)-cre-luc cells expressing human H3 receptor; RαMH 10 nM, forskolin 1 μM. The protocol:
The functional activity of compounds at the H3 receptor was determined by measuring changes in the level of intracellular cAMP using a cAMP response element driven luciferase reporter assay. The changes in luciferase expression were monitored by a luminescence plate reader, Analyst HT (MDS Analytical). Increases in intracellular cAMP were readily detected upon activation of protein kinase A by forskolin (Sigma) and suppression of this response observed with the application of the H3 receptor agonist RαMH (Sigma).
CHO(dhfr^+)-cre-luc cells stably expressing human H3 receptor were routinely grown as monolayers in Minimal Essential Medium α (MEMα) (Invitrogen) supplemented with 10% dialysed FBS (Hyclone), in 5% CO2 at 37° C. 48 hours prior to assay, cells were seeded in clear-base white walled 384-well plates (Corning) at a density of 5000 cells/well. On the day of assay, growth media was removed and replaced with […] of assay buffer (MEMα, 5 mg/ml fatty acid free BSA (Sigma)) per well. Cells were then incubated for 30 minutes at 37° C., 5% CO2. Compound was serially diluted in DMSO before being diluted 1:10 with assay buffer. 2.5 of compound diluted in assay buffer was added and cells incubated for 5 minutes at 37° C., 5% CO2. […] The level of light output to determine the level of luciferase expression was then measured. […]
(In general: In a reporter assay the amount or activity of a reporter protein is the signal.)

The IC50 is the concentration that inhibits the measured activity by half.

On to `Cc1cc(CNC(=O)c2ccc3c(c2)CCN(C2CCC2)CC3)nn1C`, for which the IC50 on human H3 receptor [1] is 9 nM; on human H3 receptor [2] it was 4 nM.
`N#Cc1ccccc1CNC(=O)c1ccc2c(c1)CCN(C1CCC1)CC2`: the IC50 on human H3 receptor [1] stood at 12 nM.

The values are drawn from US20110124626A1, “BENZAZEPINE DERIVATIVES AND THEIR USE AS HISTAMINE H3 ANTAGONISTS” (TAKEDA PHARMACEUTICAL COMPANY LIMITED, priority 2008, published 2011).
